From ChEMBL document CHEMBL1128301, “Cephalosporin derivatives of doxorubicin as prodrugs for activation by monoclonal antibody-beta-lactamase conjugates” (J Med Chem, 1995)

B1: Beta-lactamase (Enterobacter cloacae), P05364 (protein)
chain: MMRKSLCCALLLGISCSALATPVSEKQLAEVVANTITPLMKAQSVPGMAVAVIYQGKPHYYTFGKADIAANKPVTPQTLFELGSISKTFTGVLGGDAIARGEISLDDAVTRYWPQLTGKQWQGIRMLDLATYTAGGLPLQVPDEVTDNASLLRFYQNWQPQWKPGTTRLYANASIGLFGALAVKPSGMPYEQAMTTRVLKPLKLDHTWINVPKAEEAHYAWGYRDGKAVRVSPGMLDAQAYGVKTNVQDMANWVMANMAPENVADASLKQGIALAQSRYWRIGSMYQGLGWEMLNWPVEANTVVEGSDSKVALAPLPVAEVNPPAPPVKASWVHKTGSTGGFGSYVAFIPEKQIGIVMLANTSYPNPARVEAAYHILEALQ
B2: Metallo-beta-lactamase type 2 (Bacillus cereus), P14488 (protein)
chain: MKNTLLKLGVCVSLLGITPFVSTISSVQAERTVEHKVIKNETGTISISQLNKNVWVHTELGYFSGEAVPSNGLVLNTSKGLVLVDSSWDDKLTKELIEMVEKKFKKRVTDVIITHAHADRIGGMKTLKERGIKAHSTALTAELAKKNGYEEPLGDLQSVTNLKFGNMKVETFYPGKGHTEDNIVVWLPQYQILAGGCLVKSASSKDLGNVADAYVNEWSTSIENVLKRYGNINLVVPGHGEVGDRGLLLHTLDLLK

Columns and labels:
[1] = substrate: COc1cccc2c1C(=O)c1c(O)c3c(c(O)c1C2=O)C[C@@](O)(C(=O)CO)C[C@@H]3OC1CC(NC(=O)OCC2=C(C(=O)O)N3C(=O)[C@@H](NC(=O)Cc4ccccc4)[C@H]3SC2)C(O)C(C)O1; assay: The kinetic constant(Km) value as spectrophotometrically by using Enterobacter cloacae P99 beta-lactamase (ECIbL) enzyme as catalyst
Summary of the method: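 Initial-velocity kinetics at 23 °C in PBS with 12.5 μg/mL bovine serum albumin. […] Hydrolysis followed by absorbance change at 230 nm or 260 nm, linear over 1 min. Km from direct linear plots, mean of at least three independent experiments.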

[2] = substrate: COc1cccc2c1C(=O)c1c(O)c3c(c(O)c1C2=O)C[C@@](O)(C(=O)CO)C[C@@H]3OC1CC(NC(=O)OCC2=C(C(=O)O)N3C(=O)[C@@H](NC(=O)Cc4ccccc4)[C@H]3SC2)C(O)C(C)O1; assay: The kinetic constant(Km) value as spectrophotometrically by using Bacillus cereus beta-lactamase (BCbL) enzyme as catalyst
Summary of the method: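 Spectrophotometric hydrolysis at 23 °C in PBS with 12.5 μg/mL BSA. EClbL was used at 0.1 μg/mL; BCbL and ECbL at 1.0 μg/mL. […] Initial velocities were linear over 1 min. Km and kcat came from direct linear plots, as the mean of ≥3 independent runs.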

Protein	Km [1] [µM]	Km [2] [µM]
B1	46	–
B2	–	38
